Values of other authors as cited in patent US20240400784A1, “Method for Screening Solvent for Extracting Polyvinyl Chloride, Method for Recycling Waste, Recycled Polyvinyl Chloride, and Composition” (LG Chem, Ltd., priority 2021, published 2024).

Details: value in Table 1 of Document #1; swollen PVC and solvent volume based on PVC volume

PVC swelling ratio: 1
Substance: 1-Butanol
